Experimental findings from patent publication US9277747B2, “Agricultural composition comprising pH sensitive agricultural chemicals and organic pH buffer” (NUTRIAG LTD., priority 2010, dated 2016) are described below.

A short description of the data set: Storage stability of concentrates at elevated temperatures. As to conditions: pH indicator in agricultural concentrate with carbohydrate acids as pH modifying agent.

For resorcin blue, the “stability of the pH indicator in the presence of carbohydrate acids / carbohydrate acid mixture” value is “low stability”.
The entry for `O=[N+]([O-])c1ccc([N+](=O)[O-])c(O)c1` is “low stability”.
